# Experimental data from ChEMBL document CHEMBL2150892, “Neuroprotective Tri- and Tetracyclic BChE Inhibitors Releasing Reversible Inhibitors upon Carbamate Transfer” (ACS Med Chem Lett, 2012).
# Chains of the proteins cited; added tags and fusions are not shown. Lines headed by an entry give the natural chain unless they say otherwise; changes in a name come on top.
# UniProt O42275: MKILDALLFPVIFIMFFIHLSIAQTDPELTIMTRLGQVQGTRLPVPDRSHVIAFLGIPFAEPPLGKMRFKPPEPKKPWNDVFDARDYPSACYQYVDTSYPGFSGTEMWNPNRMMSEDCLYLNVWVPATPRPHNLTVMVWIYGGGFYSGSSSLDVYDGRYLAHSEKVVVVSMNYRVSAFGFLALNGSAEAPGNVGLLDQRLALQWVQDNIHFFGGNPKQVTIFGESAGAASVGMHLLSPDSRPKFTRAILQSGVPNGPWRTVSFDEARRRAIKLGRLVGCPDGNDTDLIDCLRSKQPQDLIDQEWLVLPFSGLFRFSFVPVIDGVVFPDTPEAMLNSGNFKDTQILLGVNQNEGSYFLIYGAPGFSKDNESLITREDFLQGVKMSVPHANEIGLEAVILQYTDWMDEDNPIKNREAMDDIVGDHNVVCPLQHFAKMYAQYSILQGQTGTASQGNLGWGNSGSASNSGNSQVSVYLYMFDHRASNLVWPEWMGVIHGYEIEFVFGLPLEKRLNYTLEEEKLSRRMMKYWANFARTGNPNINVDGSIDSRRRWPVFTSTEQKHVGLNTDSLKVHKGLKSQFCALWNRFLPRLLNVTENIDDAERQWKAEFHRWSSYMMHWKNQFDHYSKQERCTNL
# UniProt P81908, whole entry: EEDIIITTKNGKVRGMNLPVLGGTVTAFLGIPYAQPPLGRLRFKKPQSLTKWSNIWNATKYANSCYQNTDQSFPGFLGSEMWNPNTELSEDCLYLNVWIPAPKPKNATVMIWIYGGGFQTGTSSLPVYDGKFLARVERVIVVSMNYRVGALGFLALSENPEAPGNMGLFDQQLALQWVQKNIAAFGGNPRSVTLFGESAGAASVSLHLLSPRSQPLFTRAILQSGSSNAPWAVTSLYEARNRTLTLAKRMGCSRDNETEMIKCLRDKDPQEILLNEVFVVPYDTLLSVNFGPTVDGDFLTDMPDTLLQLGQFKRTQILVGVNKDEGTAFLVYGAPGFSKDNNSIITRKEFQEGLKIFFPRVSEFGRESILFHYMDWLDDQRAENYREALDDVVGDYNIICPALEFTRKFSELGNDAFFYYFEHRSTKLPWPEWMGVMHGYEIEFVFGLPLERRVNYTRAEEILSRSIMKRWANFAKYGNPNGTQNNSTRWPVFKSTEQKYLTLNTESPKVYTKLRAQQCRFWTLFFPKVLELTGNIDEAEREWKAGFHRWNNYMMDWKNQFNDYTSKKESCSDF
# Experiments:
# Acetylcholinesterase [1] = target: T1, Acetylcholinesterase (Electrophorus electricus, UniProt O42275); test: Inhibition of Electric eel AChE using acetylthiocholine as substrate after 2 mins
# In short: (§1)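 Enzyme sources were electric eel AChE and equine serum BChE. Values are means of at least three independent determinations. Single-point entries are % inhibition at 100 μM.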
# Cholinesterase [2] = target: T2, Cholinesterase (Equus caballus, UniProt P81908); test: Inhibition of equine serum BChE using acetylthiocholine as substrate after 2 mins; in short: as §1
# Acetylcholinesterase [3] = target: T1, Acetylcholinesterase; test: Time dependent inhibition of Electric eel AChE assessed as stability constants of inhibitor-enzyme complex using acetylthiocholine as substrate after 60 mins
# Cholinesterase [4] = target: T2, Cholinesterase; test: Time dependent inhibition of equine serum BChE assessed as stability constants of inhibitor-enzyme complex using acetylthiocholine as substrate after 60 mins
smiles,measurement,setting,value
CNC(=O)Oc1ccc2c(c1)[C@]1(C)CCN(C)[C@@H]1N2C [PHYSOSTIGMINE],IC50,Acetylcholinesterase [1],90 nM
same,IC50,Cholinesterase [2],42 nM
same,Ki,Acetylcholinesterase [3],34 nM
same,Ki,Cholinesterase [4],41 nM
